pIC50: −log10 of the molar value. Where two headings read alike, the source gives them in different places.
How the values were obtained:
EGFR WT = EGFR WT (Homo sapiens, UniProt P00533); experiment: Biochemical EGFR kinase assay (Lance Ultra TR-FRET), wildtype
[1] = molecular target: EGFR D19TMCS (del19/T790M/C797S) (Homo sapiens, UniProt P00533, C797S/DEL746-750/T790M); experiment: Biochemical EGFR kinase assay (Lance Ultra TR-FRET), triple mutant del19/T790M/C797S
EGFR D19CS (del19/C797S) = EGFR D19CS (del19/C797S) (Homo sapiens, UniProt P00533, C797S/DEL746-750); experiment: Biochemical EGFR kinase assay (Lance Ultra TR-FRET), double mutant del19/C797S
EGFR LRCS (L858R/C797S) = EGFR LRCS (L858R/C797S) (Homo sapiens, UniProt P00533, C797S/L858R); experiment: Biochemical EGFR kinase assay (Lance Ultra TR-FRET), double mutant L858R/C797S
[2] = molecular target: EGFR LRTMCS (L858R/T790M/C797S) (Homo sapiens, UniProt P00533, C797S/L858R/T790M); experiment: Biochemical EGFR kinase assay (Lance Ultra TR-FRET), triple mutant L858R/T790M/C797S
[3] = read-out: EGFR WT IC50, ATP 1 mM
[4] = read-out: EGFR D19TMCS IC50, ATP 1 mM
[5] = read-out: EGFR D19TMCS IC50, ATP Km
[6] = read-out: EGFR D19CS IC50, ATP 1 mM
[7] = read-out: EGFR D19CS IC50, ATP Km
[8] = read-out: EGFR LRCS IC50, ATP 1 mM
[9] = read-out: EGFR LRCS IC50, ATP Km
[10] = read-out: EGFR LRTMCS IC50, ATP 1 mM
[11] = read-out: EGFR LRTMCS IC50, ATP Km

Protein sequences, listed by entry. Tags and fused reporters are not part of them. Lines headed by an entry give the natural chain unless they say otherwise; changes in a name come on top. Chains listed by the source or under a name are the forms on record and can include a tag or linker. Residues count along the entry.
UniProt P00533, 25-1210 limits assumed: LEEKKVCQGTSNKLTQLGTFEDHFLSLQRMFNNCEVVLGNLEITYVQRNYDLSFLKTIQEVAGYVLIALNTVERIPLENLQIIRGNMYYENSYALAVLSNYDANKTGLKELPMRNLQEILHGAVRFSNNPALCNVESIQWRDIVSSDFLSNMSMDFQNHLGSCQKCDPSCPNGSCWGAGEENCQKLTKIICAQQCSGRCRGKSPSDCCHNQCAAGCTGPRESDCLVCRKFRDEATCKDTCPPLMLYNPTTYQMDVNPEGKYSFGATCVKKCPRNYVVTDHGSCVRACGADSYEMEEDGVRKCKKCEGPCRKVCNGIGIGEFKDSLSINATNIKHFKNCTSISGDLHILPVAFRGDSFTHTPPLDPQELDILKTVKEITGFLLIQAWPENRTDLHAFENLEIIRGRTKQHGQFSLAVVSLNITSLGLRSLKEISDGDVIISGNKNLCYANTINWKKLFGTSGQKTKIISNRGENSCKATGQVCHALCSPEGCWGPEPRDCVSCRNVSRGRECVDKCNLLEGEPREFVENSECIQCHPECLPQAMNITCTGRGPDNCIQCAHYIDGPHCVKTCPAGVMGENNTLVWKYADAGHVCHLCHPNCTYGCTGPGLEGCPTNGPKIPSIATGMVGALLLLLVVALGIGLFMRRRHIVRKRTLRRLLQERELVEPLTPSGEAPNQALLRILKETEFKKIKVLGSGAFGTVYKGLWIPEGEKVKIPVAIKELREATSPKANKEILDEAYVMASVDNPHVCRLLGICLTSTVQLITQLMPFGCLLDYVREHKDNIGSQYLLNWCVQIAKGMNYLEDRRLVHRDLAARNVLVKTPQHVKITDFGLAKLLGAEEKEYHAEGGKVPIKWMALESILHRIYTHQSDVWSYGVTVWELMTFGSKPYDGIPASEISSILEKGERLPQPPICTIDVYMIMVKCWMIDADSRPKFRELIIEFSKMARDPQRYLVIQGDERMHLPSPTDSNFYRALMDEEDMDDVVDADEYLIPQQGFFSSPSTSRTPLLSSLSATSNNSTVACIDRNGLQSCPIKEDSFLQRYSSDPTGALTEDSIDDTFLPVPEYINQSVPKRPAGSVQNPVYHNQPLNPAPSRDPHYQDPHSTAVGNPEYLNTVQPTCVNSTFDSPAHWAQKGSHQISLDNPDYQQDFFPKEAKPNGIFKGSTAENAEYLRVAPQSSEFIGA
UniProt P00533, 25-1210 C797S/L858R limits assumed: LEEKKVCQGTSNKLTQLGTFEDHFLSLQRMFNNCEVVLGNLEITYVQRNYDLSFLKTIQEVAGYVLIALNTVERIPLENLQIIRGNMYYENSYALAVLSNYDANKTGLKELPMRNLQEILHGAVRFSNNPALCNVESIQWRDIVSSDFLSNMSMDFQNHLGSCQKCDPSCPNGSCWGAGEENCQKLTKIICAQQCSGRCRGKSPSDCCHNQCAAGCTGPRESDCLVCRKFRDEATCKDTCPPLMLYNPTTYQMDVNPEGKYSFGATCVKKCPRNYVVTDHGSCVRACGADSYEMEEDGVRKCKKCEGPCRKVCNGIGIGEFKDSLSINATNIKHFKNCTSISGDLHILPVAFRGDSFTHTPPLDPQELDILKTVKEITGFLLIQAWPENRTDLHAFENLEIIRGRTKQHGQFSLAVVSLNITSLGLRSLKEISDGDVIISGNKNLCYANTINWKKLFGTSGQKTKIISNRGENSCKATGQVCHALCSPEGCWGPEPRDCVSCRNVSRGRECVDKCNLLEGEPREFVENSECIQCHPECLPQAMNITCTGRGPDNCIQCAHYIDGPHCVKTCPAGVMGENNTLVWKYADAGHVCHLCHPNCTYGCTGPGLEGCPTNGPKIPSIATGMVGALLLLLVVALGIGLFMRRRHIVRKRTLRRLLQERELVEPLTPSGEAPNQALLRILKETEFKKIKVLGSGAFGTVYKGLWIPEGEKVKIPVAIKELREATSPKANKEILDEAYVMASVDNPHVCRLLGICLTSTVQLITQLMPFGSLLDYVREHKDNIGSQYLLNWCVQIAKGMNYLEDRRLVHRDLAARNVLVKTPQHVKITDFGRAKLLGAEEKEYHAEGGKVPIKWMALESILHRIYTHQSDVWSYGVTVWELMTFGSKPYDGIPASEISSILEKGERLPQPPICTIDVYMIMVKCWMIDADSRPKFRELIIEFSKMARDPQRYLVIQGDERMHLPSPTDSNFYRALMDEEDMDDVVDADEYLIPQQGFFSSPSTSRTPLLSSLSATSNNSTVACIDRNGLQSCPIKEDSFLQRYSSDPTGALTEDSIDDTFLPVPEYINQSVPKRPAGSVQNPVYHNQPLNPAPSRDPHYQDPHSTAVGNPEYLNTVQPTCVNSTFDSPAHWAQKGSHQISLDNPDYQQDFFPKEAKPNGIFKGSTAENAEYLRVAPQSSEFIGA
UniProt P00533, 25-1210 T790M/C797S/L858R limits assumed: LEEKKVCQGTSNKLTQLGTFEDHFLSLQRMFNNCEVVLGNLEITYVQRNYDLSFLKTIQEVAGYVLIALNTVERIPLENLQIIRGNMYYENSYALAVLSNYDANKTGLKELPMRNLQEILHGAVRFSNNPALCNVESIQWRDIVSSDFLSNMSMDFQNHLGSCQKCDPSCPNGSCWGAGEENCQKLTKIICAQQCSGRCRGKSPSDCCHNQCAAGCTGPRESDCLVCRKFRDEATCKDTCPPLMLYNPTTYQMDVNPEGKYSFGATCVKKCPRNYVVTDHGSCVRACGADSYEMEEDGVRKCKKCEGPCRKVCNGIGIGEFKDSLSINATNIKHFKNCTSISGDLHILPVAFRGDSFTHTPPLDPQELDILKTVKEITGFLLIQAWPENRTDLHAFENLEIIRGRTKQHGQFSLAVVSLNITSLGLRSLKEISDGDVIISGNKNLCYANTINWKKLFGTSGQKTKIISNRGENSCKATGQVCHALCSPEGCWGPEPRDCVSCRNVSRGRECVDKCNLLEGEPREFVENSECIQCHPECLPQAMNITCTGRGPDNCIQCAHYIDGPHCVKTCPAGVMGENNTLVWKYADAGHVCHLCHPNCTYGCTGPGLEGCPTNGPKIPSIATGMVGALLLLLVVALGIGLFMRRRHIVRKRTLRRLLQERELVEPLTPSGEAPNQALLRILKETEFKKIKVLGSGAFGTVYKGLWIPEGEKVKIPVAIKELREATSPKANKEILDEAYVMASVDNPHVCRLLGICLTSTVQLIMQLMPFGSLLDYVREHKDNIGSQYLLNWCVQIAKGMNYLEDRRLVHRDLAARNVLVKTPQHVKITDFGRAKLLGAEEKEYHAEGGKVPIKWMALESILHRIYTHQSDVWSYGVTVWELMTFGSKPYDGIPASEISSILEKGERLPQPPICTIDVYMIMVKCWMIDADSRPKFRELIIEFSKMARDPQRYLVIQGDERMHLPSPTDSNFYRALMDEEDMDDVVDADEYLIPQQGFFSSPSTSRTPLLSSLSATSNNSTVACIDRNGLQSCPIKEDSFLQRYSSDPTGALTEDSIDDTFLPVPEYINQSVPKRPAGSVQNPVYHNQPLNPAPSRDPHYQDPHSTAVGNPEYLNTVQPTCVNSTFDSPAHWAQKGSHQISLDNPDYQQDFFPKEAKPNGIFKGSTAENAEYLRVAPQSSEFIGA
UniProt P00533, with tags, fused parts or gaps DEL746-750/C797S limits assumed: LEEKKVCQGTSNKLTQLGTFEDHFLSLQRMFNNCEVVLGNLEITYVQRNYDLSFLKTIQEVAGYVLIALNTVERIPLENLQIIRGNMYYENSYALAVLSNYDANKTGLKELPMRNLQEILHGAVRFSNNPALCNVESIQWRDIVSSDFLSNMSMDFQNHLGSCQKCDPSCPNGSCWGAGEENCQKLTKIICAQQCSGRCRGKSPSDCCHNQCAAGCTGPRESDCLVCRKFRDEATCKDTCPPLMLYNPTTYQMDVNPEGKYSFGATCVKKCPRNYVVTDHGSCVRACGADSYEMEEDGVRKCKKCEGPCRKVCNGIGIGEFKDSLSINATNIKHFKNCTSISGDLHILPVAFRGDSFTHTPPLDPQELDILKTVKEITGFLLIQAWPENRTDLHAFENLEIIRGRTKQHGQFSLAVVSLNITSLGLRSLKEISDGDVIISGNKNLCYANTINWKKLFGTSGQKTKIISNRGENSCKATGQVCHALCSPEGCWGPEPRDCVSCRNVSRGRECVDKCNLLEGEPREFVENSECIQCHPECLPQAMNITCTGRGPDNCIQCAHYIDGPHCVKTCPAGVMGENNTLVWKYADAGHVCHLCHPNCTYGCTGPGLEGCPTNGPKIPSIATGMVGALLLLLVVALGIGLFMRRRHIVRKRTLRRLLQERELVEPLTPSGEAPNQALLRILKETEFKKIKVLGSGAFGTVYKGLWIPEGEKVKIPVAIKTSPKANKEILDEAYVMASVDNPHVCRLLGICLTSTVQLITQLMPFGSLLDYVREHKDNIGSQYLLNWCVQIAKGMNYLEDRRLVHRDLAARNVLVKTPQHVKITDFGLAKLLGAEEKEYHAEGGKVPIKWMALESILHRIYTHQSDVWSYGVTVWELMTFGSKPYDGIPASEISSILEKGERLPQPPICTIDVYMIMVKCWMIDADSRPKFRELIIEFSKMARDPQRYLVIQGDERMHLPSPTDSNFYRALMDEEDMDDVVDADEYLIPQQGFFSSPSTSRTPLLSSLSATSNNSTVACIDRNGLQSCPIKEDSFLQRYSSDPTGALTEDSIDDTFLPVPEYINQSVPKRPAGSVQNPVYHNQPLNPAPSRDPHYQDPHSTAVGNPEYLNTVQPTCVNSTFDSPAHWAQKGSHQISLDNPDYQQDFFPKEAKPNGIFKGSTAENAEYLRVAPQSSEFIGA
UniProt P00533, with tags, fused parts or gaps DEL746-750/T790M/C797S limits assumed: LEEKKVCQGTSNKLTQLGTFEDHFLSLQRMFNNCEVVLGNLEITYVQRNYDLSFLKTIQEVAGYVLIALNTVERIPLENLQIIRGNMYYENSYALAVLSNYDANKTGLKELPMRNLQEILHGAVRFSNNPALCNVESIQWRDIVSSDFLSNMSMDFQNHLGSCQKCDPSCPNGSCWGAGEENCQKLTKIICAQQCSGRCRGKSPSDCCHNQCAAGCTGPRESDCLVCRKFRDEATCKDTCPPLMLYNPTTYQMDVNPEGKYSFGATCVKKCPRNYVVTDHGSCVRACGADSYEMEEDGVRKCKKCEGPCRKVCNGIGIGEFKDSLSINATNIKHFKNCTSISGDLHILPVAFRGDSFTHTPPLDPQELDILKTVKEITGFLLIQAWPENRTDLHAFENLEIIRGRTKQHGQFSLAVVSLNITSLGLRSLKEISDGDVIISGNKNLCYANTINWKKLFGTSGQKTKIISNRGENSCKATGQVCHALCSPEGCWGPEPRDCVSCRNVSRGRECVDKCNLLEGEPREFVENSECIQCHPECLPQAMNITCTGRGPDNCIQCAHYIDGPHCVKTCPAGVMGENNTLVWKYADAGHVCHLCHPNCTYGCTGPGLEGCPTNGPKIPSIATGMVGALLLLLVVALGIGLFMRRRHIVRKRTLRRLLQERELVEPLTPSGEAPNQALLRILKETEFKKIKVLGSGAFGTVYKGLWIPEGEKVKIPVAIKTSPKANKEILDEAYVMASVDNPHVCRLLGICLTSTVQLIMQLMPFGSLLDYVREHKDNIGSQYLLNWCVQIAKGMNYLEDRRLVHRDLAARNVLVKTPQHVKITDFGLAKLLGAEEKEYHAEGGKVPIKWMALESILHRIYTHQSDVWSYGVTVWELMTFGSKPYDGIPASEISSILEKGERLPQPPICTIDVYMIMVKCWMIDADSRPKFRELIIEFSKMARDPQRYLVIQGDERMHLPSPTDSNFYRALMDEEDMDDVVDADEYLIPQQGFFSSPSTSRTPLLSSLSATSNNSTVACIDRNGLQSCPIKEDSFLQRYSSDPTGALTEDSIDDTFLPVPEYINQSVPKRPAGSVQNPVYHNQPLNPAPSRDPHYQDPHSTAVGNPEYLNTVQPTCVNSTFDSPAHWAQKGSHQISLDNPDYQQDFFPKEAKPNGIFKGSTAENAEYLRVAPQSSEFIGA

Structure (SMILES) | pIC50 (EGFR WT; [3]) | pIC50 (EGFR WT; read-out: EGFR WT IC50, ATP Km) | pIC50 [1, 4] | pIC50 [1, 5] | pIC50 (EGFR D19CS (del19/C797S); [6]) | pIC50 (EGFR D19CS (del19/C797S); [7]) | pIC50 (EGFR LRCS (L858R/C797S); [8]) | pIC50 (EGFR LRCS (L858R/C797S); [9]) | pIC50 [2, 10] | pIC50 [2, 11] | pIC50 (EGFR WT; read-out: IC50, EGFR WT, 1 mM, ATP 1 mM, EGFR wildtype) | pIC50 (EGFR WT; read-out: IC50, EGFR WT, Km, ATP at Km, EGFR wildtype) | pIC50 ([1]; read-out: IC50, EGFR D19TMCS, Km, ATP at Km, EGFR del19/T790M/C797S) | pIC50 (EGFR D19CS (del19/C797S); read-out: IC50, EGFR-D19CS, 1 mM, ATP 1 mM, EGFR del19/C797S) | pIC50 (EGFR D19CS (del19/C797S); read-out: IC50, EGFR-D19CS, Km, ATP at Km, EGFR del19/C797S) | pIC50 (EGFR LRCS (L858R/C797S); read-out: IC50, EGFR-LRCS, 1 mM, ATP 1 mM, EGFR L858R/C797S) | pIC50 (EGFR LRCS (L858R/C797S); read-out: IC50, EGFR-LRCS, Km, ATP at Km, EGFR L858R/C797S) | pIC50 ([2]; read-out: IC50, EGFR LRTMCS, 1 mM, ATP 1 mM, EGFR L858R/T790M/C797S) | pIC50 ([2]; read-out: IC50, EGFR LRTMCS, Km, ATP at Km, EGFR L858R/T790M/C797S)
C[C@H]1CCOc2c(cnn2C)-c2nccc(n2)Nc2cc(c(-c3ncc(CN4CC(F)(F)C4)cc3F)cn2)N1 | < 6.00 | 7.00 to 8.00 | > 8.00 | > 8.00 | 7.00 to 8.00 | 7.00 to 8.00 | 6.00 to 7.00 | > 8.00 | > 8.00 | > 8.00 |  |  |  |  |  |  |  |  | 
C[C@@H]1CCOc2c(cnn2C)-c2nccc(n2)Nc2cc(c(-c3csc(C(F)(F)F)n3)cn2)N1 | < 6.00 | < 6.00 | < 6.00 | 7.00 to 8.00 | < 6.00 | < 6.00 | < 6.00 | < 6.00 | < 6.00 | 7.00 to 8.00 |  |  |  |  |  |  |  |  | 
Cn1ncc2c1OCC(C)(C)CNc1cc(ncc1-c1ccn(CC(F)(F)F)n1)Nc1ccnc-2n1 | < 6.00 | 6.00 to 7.00 | > 8.00 | > 8.00 | 6.00 to 7.00 | 7.00 to 8.00 | 6.00 to 7.00 | 7.00 to 8.00 | > 8.00 | > 8.00 |  |  |  |  |  |  |  |  | 
Cc1nn(C)c2c1-c1nccc(n1)Nc1cc(c(-c3ncc(C(C)(C)O)cn3)cn1)NCC[C@@H](C)O2 | < 6.00 | 7.00 to 8.00 | > 8.00 | > 8.00 | > 8.00 | > 8.00 | 7.00 to 8.00 | > 8.00 | > 8.00 | > 8.00 |  |  |  |  |  |  |  |  | 
Cc1nn(C)c2c1-c1nccc(n1)Nc1cc(c(-c3ncc(CN4CC5(C4)CS(=O)(=O)C5)cc3F)cn1)NCC[C@H](C)O2 |  |  |  |  |  |  |  |  |  |  | < 6.00 | > 8.00 | 7.00 to 8.00 | 7.00 to 8.00 | > 8.00 | > 8.00 | > 8.00 | > 8.00 | > 8.00
Cc1nn(C)c2c1-c1nccc(n1)Nc1cc(c(-c3ccc(C(F)(F)F)cn3)cn1)NCC[C@H](C)O2 | < 6.00 | < 6.00 | > 8.00 | > 8.00 | 6.00 to 7.00 | 7.00 to 8.00 | 6.00 to 7.00 | 7.00 to 8.00 | 7.00 to 8.00 | > 8.00 |  |  |  |  |  |  |  |  | 
Cn1ncc2c1OCC(C)(C)CNc1cc(ncc1-c1cnc(OC3COC3)cn1)Nc1ccnc-2n1 | < 6.00 | 7.00 to 8.00 | > 8.00 | > 8.00 | 6.00 to 7.00 | 7.00 to 8.00 | < 6.00 | 7.00 to 8.00 | 7.00 to 8.00 | > 8.00 |  |  |  |  |  |  |  |  | 

Further lines, results first:

pIC50 (EGFR WT; [3]) | pIC50 (EGFR WT; read-out: EGFR WT IC50, ATP Km) | pIC50 [1, 4] | pIC50 [1, 5] | pIC50 (EGFR D19CS (del19/C797S); [6]) | pIC50 (EGFR D19CS (del19/C797S); [7]) | pIC50 (EGFR LRCS (L858R/C797S); [8]) | pIC50 (EGFR LRCS (L858R/C797S); [9]) | pIC50 [2, 10] | pIC50 [2, 11] | pIC50 (EGFR WT; read-out: IC50, EGFR WT, 1 mM, ATP 1 mM, EGFR wildtype) | pIC50 (EGFR WT; read-out: IC50, EGFR WT, Km, ATP at Km, EGFR wildtype) | pIC50 ([1]; read-out: IC50, EGFR D19TMCS, Km, ATP at Km, EGFR del19/T790M/C797S) | pIC50 (EGFR D19CS (del19/C797S); read-out: IC50, EGFR-D19CS, 1 mM, ATP 1 mM, EGFR del19/C797S) | pIC50 (EGFR D19CS (del19/C797S); read-out: IC50, EGFR-D19CS, Km, ATP at Km, EGFR del19/C797S) | pIC50 (EGFR LRCS (L858R/C797S); read-out: IC50, EGFR-LRCS, 1 mM, ATP 1 mM, EGFR L858R/C797S) | pIC50 (EGFR LRCS (L858R/C797S); read-out: IC50, EGFR-LRCS, Km, ATP at Km, EGFR L858R/C797S) | pIC50 ([2]; read-out: IC50, EGFR LRTMCS, 1 mM, ATP 1 mM, EGFR L858R/T790M/C797S) | pIC50 ([2]; read-out: IC50, EGFR LRTMCS, Km, ATP at Km, EGFR L858R/T790M/C797S) | Structure (SMILES)
< 6.00 | > 8.00 | > 8.00 | > 8.00 | > 8.00 | > 8.00 | 7.00 to 8.00 | > 8.00 | > 8.00 | > 8.00 |  |  |  |  |  |  |  |  |  | Cc1nn(C)c2c1-c1nccc(n1)Nc1cc(c(-c3ncc(CN4CCN(C)CC4)cc3F)cn1)NCC(C)(C)CO2
< 6.00 | 7.00 to 8.00 | > 8.00 | > 8.00 | > 8.00 | > 8.00 | > 8.00 | > 8.00 | > 8.00 | > 8.00 |  |  |  |  |  |  |  |  |  | Cc1nn(C)c2c1-c1nccc(n1)Nc1cc(c(-c3ccc(N4CCC(N(C)C)CC4)cn3)cn1)N[C@@H](C)CCO2
< 6.00 | 7.00 to 8.00 | > 8.00 | > 8.00 | 7.00 to 8.00 | > 8.00 | 6.00 to 7.00 | > 8.00 | > 8.00 | > 8.00 |  |  |  |  |  |  |  |  |  | C[C@H]1CCOc2c(cnn2C)-c2nccc(n2)Nc2cc(c(-c3ccn(C(F)F)n3)cn2)N1
< 6.00 | < 6.00 | < 6.00 | 7.00 to 8.00 | < 6.00 | < 6.00 | < 6.00 | < 6.00 | 6.00 to 7.00 | > 8.00 |  |  |  |  |  |  |  |  |  | COc1cccnc1-c1cnc2cc1NCCCOc1c(cnn1C)-c1nccc(n1)N2
< 6.00 | > 8.00 | > 8.00 | > 8.00 | > 8.00 | > 8.00 | > 8.00 | > 8.00 | > 8.00 | > 8.00 |  |  |  |  |  |  |  |  |  | Cc1nn(C)c2c1-c1nccc(n1)Nc1cc(c(-c3ncc(CN4CCN(C)CC4)cc3F)cn1)N[C@@H](C)CCO2
